One assay deals with inflamed knee joint. Put plainly: Blood pressure response to compression of the kaolin/carrageenan inflamed knee joint. To be noted: for compression evoked increase in BP: intrathecal delivery.
A further assay deals with human κ receptor (Homo sapiens, UniProt P41145). Kind of assay: Opiate receptor binding, κ. To be noted: read-out: In Vitro Binding Affinities Human Opiate Receptors Ki, κ.

Protein sequences, listed by entry. Tags and fused reporters are not part of them. Lines headed by an entry give the natural chain unless they say otherwise; changes in a name come on top.
UniProt P41145: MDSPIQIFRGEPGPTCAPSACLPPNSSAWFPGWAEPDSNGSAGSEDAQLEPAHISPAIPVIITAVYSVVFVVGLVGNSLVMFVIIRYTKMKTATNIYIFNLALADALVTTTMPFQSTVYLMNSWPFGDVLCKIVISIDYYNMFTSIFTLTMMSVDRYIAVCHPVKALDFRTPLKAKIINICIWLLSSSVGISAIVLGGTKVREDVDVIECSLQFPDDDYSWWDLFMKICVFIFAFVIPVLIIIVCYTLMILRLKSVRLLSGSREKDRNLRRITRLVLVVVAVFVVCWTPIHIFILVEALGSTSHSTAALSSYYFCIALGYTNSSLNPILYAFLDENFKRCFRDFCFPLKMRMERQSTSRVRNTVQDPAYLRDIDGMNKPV

As a reminder, the Ki is a measure of affinity in units of concentration, obtained from inhibition or displacement.

As for `CN(C(=O)Cc1ccc(Cl)c(Cl)c1)[C@@H]1CCCC[C@H]1N1CCCC1` (relative stereo), the “ordering of activity, blockade of the compression-evoked increase in BP” value in the assay with inflamed knee joint (intramuscular (IM) administration) turned out to be 0. The “compression evoked increase in BP” value in the assay on inflamed knee joint is “effectively blocked”.

Consider `N#CC(CCN1CCC(C(=O)O)(c2ccccc2)CC1)(c1ccccc1)c1ccccc1` [Difenoxin], for which the Ki at human κ receptor was more than 1 µM.

Regarding Spiradoline mesylate, in the assay with inflamed knee joint, the “compression evoked increase in BP” value is recorded as “effectively blocked”.

These data come from US6573282B1 (priority 1995, dated 2003).
